The values that follow come from PubChem BioAssay AID504523 (Broad Institute, 2011).

The chains behind the UniProt entries cited, without tags or fusion partners.
UniProt Q14145, whole entry, looked up: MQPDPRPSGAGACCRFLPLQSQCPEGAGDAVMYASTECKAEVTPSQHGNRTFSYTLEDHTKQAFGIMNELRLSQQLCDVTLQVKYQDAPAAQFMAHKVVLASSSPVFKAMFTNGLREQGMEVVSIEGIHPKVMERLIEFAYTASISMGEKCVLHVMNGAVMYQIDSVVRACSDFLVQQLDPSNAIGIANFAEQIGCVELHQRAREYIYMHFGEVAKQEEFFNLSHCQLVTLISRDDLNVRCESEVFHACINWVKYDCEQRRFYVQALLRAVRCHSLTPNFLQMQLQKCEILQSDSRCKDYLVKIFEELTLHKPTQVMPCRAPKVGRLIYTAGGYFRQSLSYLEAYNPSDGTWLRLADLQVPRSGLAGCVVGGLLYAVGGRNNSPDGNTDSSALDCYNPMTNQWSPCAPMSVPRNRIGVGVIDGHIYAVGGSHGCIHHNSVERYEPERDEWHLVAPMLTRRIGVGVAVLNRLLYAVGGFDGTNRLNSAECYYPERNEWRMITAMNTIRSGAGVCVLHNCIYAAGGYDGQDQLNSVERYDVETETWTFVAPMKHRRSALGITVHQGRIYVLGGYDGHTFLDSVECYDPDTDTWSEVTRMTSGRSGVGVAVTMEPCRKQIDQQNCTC

The list shows a part of the results, in another mix than the full data. Active and inactive are the calls of the source. Cut-off read from the data, not from the text of the source: active = inhibition above about 12%; inconclusive = no clear call, values can overlap the other calls; inactive = below about 7.3%.

For this assay, the target named is Kelch-like ECH-associated protein 1 (Homo sapiens) (UniProt Q14145). Kind of assay: Keap1-Nrf2 protein-protein interaction inhibitors, primary screen, biochemical, fluorescence polarization, single point (AID 504523).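 Note: human Keap1 Kelch domain with fluorescein labeled Nrf2 9mer peptide probe; 0% = neutral control wells and 100% = peptide positive control; higher means more block of Keap1 binding to Nrf2 peptide.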 The settings on record: Keap1 Kelch-Nrf2 peptide fluorescence polarization, 1536-well; at 9.4 µM; hits give high values. (In general: Polarisation of emitted light reports the rotation of a fluorescent probe.)
Turning to `CCOP(=O)(Nc1cccc2ccccc12)OCC`, the inhibition – broadly, the drop in the measured response relative to a control, in per cent – is inactive: 0.18%.
With `COc1cc(C2NCCC3(OCCO3)C2(C)C)cc(OC)c1OC` (stereo not drawn) the figure was inactive: -4.53%; with `CCCOP(=S)(Nc1nc(N)cc(=O)[nH]1)OCCC`, inactive: -2.93%.
Under `Nc1cccc2c([As](=O)(O)O)cccc12` stands inactive: -0.484%; under `Cc1ccc(NCCc2c([N+](=O)[O-])cc([N+](=O)[O-])cc2[N+](=O)[O-])cc1`, inactive: -1.59%.
Consider `Cc1cccc(OCC(=O)OC2CN3CCC2CC3)c1` (stereo not drawn), for which the inhibition is inactive: -2.73%.
`O=[As](O)(c1cccc(O)c1)c1cccc(O)c1`: the inhibition was inactive: -1.27%.
With `CS(=O)(=O)c1ccc(Cl)c(NC(=O)COC(=O)C(O)(c2ccccc2)c2ccccc2)c1` the figure was inactive: 5.26%; with `O=[As](O)(O)c1cccnc1`, inactive: 0.717%; with `COc1cc(C(=O)NCC2(N3CCOCC3)CCCCC2)cc(Cl)c1OC(C)C`, inactive: 3.02%.
With `O=C(OC1CN2CCC1CC2)c1ccc(Cl)cc1` (stereo not drawn) the figure was inactive: -0.687%.
As for `CN(C(=O)Cc1ccc(Cl)c(Cl)c1)[C@H]1CC[C@@]2(CCCO2)C[C@@H]1N1CCCC1`, the inhibition was inactive: 3.55%.
In the case of `O=[N+]([O-])c1ccc2c(c1)nnn2O`, the inhibition is inactive: -6.98%.
Take `CN(C)C(=O)c1cc([N+](=O)[O-])cc2c1-c1c(cc([N+](=O)[O-])cc1[N+](=O)[O-])C2=O`: the inhibition is inactive: -3.24%.
With `CCOP1(=S)c2c(C)nn(CCC#N)c2N=C(c2ccc(F)cc2)N1C` (stereo not drawn) the figure was inactive: -2.54%.
With `CN(C(=O)Cc1ccccc1)[C@@H]1CC[C@]2(CCCO2)C[C@H]1N1CCCC1` the figure was inactive: -15%; with `N#CCCN(C(=O)COC(=O)C(O)(c1ccccc1)c1ccccc1)c1ccc(F)cc1`, inactive: 0.9%; with `NC(=O)Nc1ccc([As](=O)(O)O)cc1`, inactive: -4.35%.
Under `O=C(O)COc1ccc([As](=O)(O)O)cc1[N+](=O)[O-]` stands inactive: -4.73%.
As to `Nc1ccccc1[As](=O)(O)c1ccccc1`, the inhibition is inactive: 0.499%.
With `CS(=O)(=O)c1cc([N+](=O)[O-])c2no[n+]([O-])c2c1`, the inhibition was inactive: 3.97%.
With `O=P(Nc1nccs1)(Oc1ccccc1)Oc1ccccc1` the figure was inactive: 2.43%; with `O=P(Nc1nccs1)(c1ccccc1)c1nc2ccccc2s1` (stereo not drawn), inactive: 0.514%.
For the compound `CCOP1(=S)c2c(C)nn(CCC#N)c2N=C(c2ccccc2F)N1C` (stereo not drawn), the inhibition was inactive: -2.81%.
For `O=[As](O)(c1cccs1)c1cccs1`, the inhibition was inactive: -1.33%.
Under `Cc1ccc(OCC(=O)OC2CN3CCC2CC3)cc1` (stereo not drawn) stands inactive: -0.111%; under `NS(=O)(=O)c1cccc(NC(=O)COC(=O)C(O)(c2ccccc2)c2ccccc2)c1`, inactive: 0.477%; under `O=P1(Nc2ccc(Br)cn2)COc2ccccc2OC1`, inactive: 0.355%.
Under `Nc1cccc([As](=O)(O)c2ccccc2)c1` stands inactive: 3.83%; under `O=P1(Nc2ncccn2)COc2ccccc2OC1`, inactive: -3.75%.
Consider `CCCC1OP(=O)(Nc2ccccc2)OCC1CC` (stereo not drawn), for which the inhibition was inactive: 2.49%.
On to `O=C(/C=C/c1ccccc1)OC1CN2CCC1CC2` (stereo not drawn), for which the inhibition is inactive: -3.7%.
For `CN(C)C1(CNC(=O)c2ccc(S(C)(=O)=O)cc2)CCCCC1`, the inhibition was inactive: 6.92%.
`Cc1ccc(C(=O)OC2CN3CCC2CC3)cc1` (stereo not drawn): the inhibition was inactive: 0.587%.
With `CC1CCC(C(C)C)C(OP(=O)(Nc2ccccn2)c2ccccc2)C1` (stereo not drawn) the figure was inactive: -1.12%.
With `Cc1nn(-c2ccccc2)c2c1P(=O)(N1CCOCC1)N(C)C(c1ccccc1)=N2` (stereo not drawn) the figure was inactive: 1.72%; with `CC1(CBr)Cn2c(nc3ccccc3c2=O)S1` (stereo not drawn), inactive: -3.11%; with `CN(C(=O)Cc1ccc(Cl)c(Cl)c1)[C@@H]1CCCC[C@H]1N1CCCC1`, inactive: -7.87%.
With `CC(C)/C=N\N=C(\N)N[N+](=O)[O-]`, the inhibition is inactive: -4.39%.
As to `CC(C)(C)C(=O)NC(Sc1ncccn1)C(Cl)(Cl)Cl` (stereo not drawn), the inhibition is inactive: -1.76%.
Turning to `Clc1n[nH]nc1-c1nn[nH][15n]1`, the inhibition is inactive: -4.37%.
For the compound `CCOP(=O)(Nc1ccc(C)cn1)OCC`, the inhibition was inactive: -7.02%.
For the compound `CCOP(=O)(NC(=NC(C)c1ccccc1)NC(C)c1ccccc1)OCC` (stereo not drawn), the inhibition was inactive: -0.379%.
With `CCC1=CC2Cc3nc4ccc(Cl)cc4c(N)c3C(C1)C2` (stereo not drawn) the figure was inactive: -2.79%; with `O=P1(Nc2ccccn2)COc2ccccc2OC1`, inactive: 3.73%.
With `CCC(C)N(CC(C)C)C(=S)SC(NC(C)=O)C(Cl)(Cl)Cl` (stereo not drawn) the figure was inactive: -0.342%; with `CCOC(=O)c1ccc(NC(=O)C(C)(CCl)SC)cc1` (stereo not drawn), inactive: -2.97%.
As for `O=C(OC1CN2CCC1CC2)c1cccc([N+](=O)[O-])c1` (stereo not drawn), the inhibition was inactive: -2.37%.
Under `O=C(Nc1ccncc1[N+](=O)[O-])c1ccc([N+](=O)[O-])cc1[N+](=O)[O-]` stands inactive: -0.211%.
Take `O=C(COc1ccccc1)OC1CN2CCC1CC2` (stereo not drawn): the inhibition is inactive: -5.12%.
For `COP1(=S)c2c(C)nn(CCC#N)c2N=C(c2ccc(F)cc2)N1C` (stereo not drawn), the inhibition is inactive: -3.6%.
Under `O=[N+]([O-])c1ccc(Nc2ccc(Oc3ccc([N+](=O)[O-])cc3[N+](=O)[O-])cc2)c([N+](=O)[O-])c1` stands inactive: -1.57%; under `Cc1cc(SC(NC=O)C(Cl)(Cl)Cl)ncn1` (stereo not drawn), inactive: -4.07%.
With `O=P(Nc1ccccn1)(c1cccc2ccccc12)c1cccc2ccccc12` the figure was inactive: 1.82%; with `CCOC(=O)Nc1cccc([As](=O)(O)O)c1`, inactive: 0.329%.
Under `Cc1cc(SC(NC(=O)c2ccccc2)C(Cl)(Cl)Cl)nc(C(C)C)n1` (stereo not drawn) stands inactive: -6.9%; under `CCCCOc1ccc(C(=O)NCC2(N3CCCCC3)CCCCC2)cc1OC`, inactive: -2.75%; under `CC1CCNP(=O)(N(CCCl)CCCl)O1` (stereo not drawn), inactive: -0.999%.
For `CCOC(=O)Nc1ccc([As](=O)(O)O)c(O)c1`, the inhibition is inactive: -0.339%.
With `O=[N+]([O-])c1cc([N+](=O)[O-])c(-c2ccn[nH]2)s1` the figure was inactive: 4.12%.
With `CC(C)NC(=O)NP(=O)(Oc1ccccc1)Oc1ccccc1`, the inhibition is inactive: 2.71%.
Turning to `O=C(OC1CN2CCC1CC2)c1cccc2[nH]cnc12` (stereo not drawn), the inhibition is inactive: 3.18%.
With `CCN(CC)C(=S)SC(NC=O)C(Cl)(Cl)Cl` (stereo not drawn), the inhibition was inactive: -1.87%.
